Test results reported in patent US20160143995A1, “Method of Treating Intracellular Infection” (priority 2013, published 2016).

Legend:
HBV = assay: Treatment of HBV infected mice (serum HBV DNA); type: in vivo, hepatitis B virus

In the case of CC[C@H](NC(=O)[C@H](C)NC)C(=O)N1C[C@@H](O)C[C@H]1Cc1c(-c2[nH]c3cc(F)ccc3c2C[C@@H]2C[C@H](O)CN2C(=O)[C@H](CC)NC(=O)[C@H](C)NC)[nH]c2cc(F)ccc12 [Birinapant, birinapant], the “earliest HBV clearance after the first treatment dose” value (HBV; C57BL/6 mice, 30 mg/kg intraperitoneally weekly) is reported as 10 days, the “efficacy of 3 doses versus 6 doses in promoting HBV clearance” value (HBV; HBV infected mice) is reported as “equivalent efficacy” and the “Antiviral Index (TC50/IC50)” value (HIV-1JR-CSF) is reported as 26.1.
